This data set has as its system THP-1 human monocytes. The settings on record: 24 h.

On to `CC(=O)Oc1c(C)c(C)c2c(c1C)CCC(C)(CCC[C@H](C)CCC[C@H](C)CCCC(C)C)O2` (some centres unmarked) [Vitamin E acetate], for which the “Maximum non-cytotoxic concentration” value (components A, B, C tested individually (lipoic acid, vitamin C, vitamin E acetate together as component B), mortality not greater than 30%) was 0.0113 mg/mL. In addition, the “Non-cytotoxic concentration” value (each component when tested together (A + B + C)) is 0.00023 mg/mL.

The record behind these values is patent publication US9980940B2, “Composition for the treatment of neuropathies and/or neuropathic pain” (Kolinpharma S.p.A., priority 2014, dated 2018).
